According to patent US20260308222A1, “STABILIZED ANALOGUES OF CALCITONIN” (YISSUM RESEARCH DEVELOPMENT COMPANY OF THE HEBREW …, priority 2024, published 2026):
Where “and” joins values, the source holds several entries; their conditions need not be identical. Equal entries are not always repeated.

Biological target: T1, calcitonin receptor (CTR) (Homo sapiens, UniProt P30988)
T1 sequence (P30988 25-474): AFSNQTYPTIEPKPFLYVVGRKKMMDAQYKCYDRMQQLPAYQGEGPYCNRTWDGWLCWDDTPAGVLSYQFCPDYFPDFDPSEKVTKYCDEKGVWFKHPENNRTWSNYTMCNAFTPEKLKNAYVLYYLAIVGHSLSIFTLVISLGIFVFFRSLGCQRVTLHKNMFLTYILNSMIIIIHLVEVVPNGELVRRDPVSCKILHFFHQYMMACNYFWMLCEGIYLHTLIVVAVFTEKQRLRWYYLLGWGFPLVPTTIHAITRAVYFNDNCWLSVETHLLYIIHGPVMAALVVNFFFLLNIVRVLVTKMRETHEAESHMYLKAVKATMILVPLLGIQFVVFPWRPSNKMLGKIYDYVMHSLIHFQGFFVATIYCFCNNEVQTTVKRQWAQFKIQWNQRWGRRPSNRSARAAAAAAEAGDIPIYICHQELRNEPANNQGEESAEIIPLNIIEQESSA
Assay: cAMP accumulation assay, U2OS Red cAMPNomad-CALCR cell line
Assay type: cell-based
Set-up: expressed in transfected cells; host or cells: U2OS Red cAMPNomad-CALCR
Details: U2OS Red cAMPNomad-CALCR cells, overnight incubation

CC[C@H](C)[C@H](NC(=O)[C@H](C)NC(=O)[C@@H](NC(=O)[C@H](CCC(N)=O)NC(=O)[C@@H]1CCCN1C(=O)[C@H](Cc1ccccc1)NC(=O)[C@@H](NC(=O)[C@H](Cc1c[nH]cn1)NC(=O)[C@H](Cc1ccccc1)NC(=O)[C@H](CCCCN)NC(=O)[C@H](CC(N)=O)NC(=O)[C@H](Cc1ccccc1)NC(=O)[C@H](CC(=O)O)NC(=O)[C@H](CCC(N)=O)NC(=O)[C@@H](NC(=O)[C@H](Cc1ccc(O)cc1)NC(=O)[C@@H](NC(=O)CNC(=O)[C@H](CC(C)C)NC(=O)[C@H](CCSC)NC(=O)[C@@H]1CSSC[C@H](N)C(=O)NCC(=O)N[C@@H](CC(N)=O)C(=O)N[C@@H](CC(C)C)C(=O)N[C@@H](CO)C(=O)N[C@@H]([C@@H](C)O)C(=O)N1)[C@@H](C)O)[C@@H](C)O)[C@@H](C)O)[C@@H](C)O)C(=O)NCC(=O)N[C@H](C(=O)NCC(=O)N[C@@H](C)C(=O)N1CCC[C@H]1C(N)=O)C(C)C [hCT, reference compound]
EC50: 7.78 nM and 7.8 nM
